Experimental data taken from patent publication US11339183B2, “Phosphate and phosphonate derivatives of 7-amino-5-thio-thiazolo[4,5-d]pyrimidines and their use in treating conditions associated with elevated levels of CX3CR1 and/or CX3CL1” (KANCERA AB, priority 2018, dated 2022).

Experiment: Further stability studies: aqueous solutions stored 60 days at room temperature and/or 40° C. (HPLC-MS)
Assay type: physicochemical
Conditions: aqueous solution 1.2 mg/mL, 1d, 1n with Na2HPO3, 1q, 4f, 4g with DMSO and (2-hydroxypropyl)-β-cyclodextrin
Protocol: Aqueous solutions of several of the example compounds were prepared at concentrations of 1.2 mg/mL (10 mg/mL for Example 1 (no salt)) according to the following procedures. • i) Examples 1 b, 2h and 3 (diammonium salts) were dissolved in pure water. • ii) Examples 1d (diammonium salt) and 1n (monoammonium salt) were suspended in water and Na2HPO3 was added until all of the compound was in solution. • iii) Examples 1q, 4f an 4g (no salts) were dissolved in water with added DMSO (100 μL) and (2-hydroxypropyl)-β-cyclodextrin was added until all of the compound was in solution.
The stability of the compounds to long-term storage in aqueous solution at room temperature and/or 40° C. was then assessed by analysis of the solution by HPLC-MS after 60 days.

SMILES | % Area by HPLC (60 days) (40° C.) [% Area] | % Area by HPLC (60 days) (room temperature) [% Area]
COP(=O)(Nc1nc2nc(S[C@@H](C)c3ccccc3)nc(N[C@@H](CO)CC(C)C)c2s1)OC | 45.1 | 91.6
CCOP(=O)(Nc1nc2nc(S[C@@H](C)c3ccccc3)nc(N[C@@H](CO)CC(C)C)c2s1)OCC | 82.1 | 95.7
